In the experiment the target is nicotinic receptors containing the α7 subunit (Rattus norvegicus, UniProt Q05941). The experiment is described as follows: [3H]-α-bungarotoxin binding to rat brain membranes, affinity for α7 nicotinic receptors. As to conditions: read-out: IC50 α7; inhibition of specific binding of 1 nM [3H]-α-bungarotoxin, rat whole brain membranes. The protocol: The compounds of the invention were also studied with regard to their affinity for nicotinic receptors containing the α7 subunit, in accordance with the methods described by Mark and Collins in J. Pharmacol. Exp. Ther. 1982, 22, 564 and by Marks et al. in Mol. Pharmacol. 1986, 30, 427.
Male OFA rats weighing 150 to 200 g are decapitated, the whole brain is removed rapidly and is homogenized using a Polytron™ mill in 15 volumes of 0.32 M sucrose solution at 4° C., then centrifuged at 1,000 G for 10 min. The pellet is discarded and the supernatant is centrifuged at 8,000 G at 4° C. for 20 min. The pellet is recovered and is homogenized using a Polytron™ mill in 15 volumes of double-distilled water at 4° C., then centrifuged at 8,000 G for 20 min. The pellet is discarded and the supernatant and layer of skin (buffy coat) are centrifuged at 40,000 G for 20 min. The pellet is recovered and resuspended in 15 volumes of double-distilled water at 4° C. and is centrifuged again at 40,000 G for 20 min, before being stored at −80° C. […] The filters are rinsed with two times 5 ml of buffer at 4° C. and the radioactivity retained on each filter is measured by liquid scintigraphy. The nonspecific binding in the presence of α-bungarotoxin at 1 μM final is measured; the nonspecific binding represents approximately 60% of the total binding recovered on the filter. […]

Sequences of proteins named here, by UniProt entry; tags and fusion partners are left off. Residues count along the entry.
UniProt Q05941, 23-502 limits assumed: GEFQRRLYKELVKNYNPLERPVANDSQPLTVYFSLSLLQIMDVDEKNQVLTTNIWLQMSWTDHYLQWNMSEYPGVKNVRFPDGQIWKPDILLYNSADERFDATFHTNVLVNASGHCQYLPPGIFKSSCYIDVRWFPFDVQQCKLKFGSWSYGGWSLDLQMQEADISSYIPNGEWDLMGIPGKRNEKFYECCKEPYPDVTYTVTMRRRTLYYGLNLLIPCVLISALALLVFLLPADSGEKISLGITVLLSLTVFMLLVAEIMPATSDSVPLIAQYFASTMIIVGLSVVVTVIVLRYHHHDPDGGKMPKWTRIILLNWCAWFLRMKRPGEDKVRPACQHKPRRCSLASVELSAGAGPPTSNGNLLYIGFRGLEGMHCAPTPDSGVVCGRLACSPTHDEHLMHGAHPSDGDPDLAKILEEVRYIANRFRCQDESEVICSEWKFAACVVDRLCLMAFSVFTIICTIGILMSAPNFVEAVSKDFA

`O=C(c1n[nH]c2ccc(Cl)cc12)N1CCN2CCC1C2` (stereo not shown): the IC50 was 224 nM.

A word on the IC50: it is the concentration that inhibits the measured activity by half.

(Values after patent US7589201B2, “Derivatives of 1,4-diazabicyclo[3.2.1]octanecarboxamide, preparation method thereof and use of same in therapeutics” (Sanofi-Aventis, priority 2004, dated 2009).)
